{"source": "PubChem BioAssay AID602363", "about": "(Broad Institute, 2012)", "note": "Only a part is listed here, and it is no random draw. Activity calls are given as the source filed them.", "data": [{"test": "UUG initiation codon usage in yeast – whole organism, S. cerevisiae, single point, plate reader, primary screen (AID 602363);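 further: firefly luciferase made from a UUG start codon reports start codon fidelity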", "conditions": "S. cerevisiae UUG-firefly luciferase reporter, luminescence/redox ratio; at 18.7 µM; hits give high values", "values": [{"smiles": "Cc1ccc(C)c(NP(C)(=O)Oc2ccccc2)c1", "note": "(stereo unspecified)", "activity score": "inactive: -12.6%"}, {"smiles": "Nc1cccc2c([As](=O)(O)O)cccc12", "activity score": "inactive: 8.04%"}, {"smiles": "Cc1ccc(NCCc2c([N+](=O)[O-])cc([N+](=O)[O-])cc2[N+](=O)[O-])cc1", "activity score": "inactive: -12%"}, {"smiles": "Cc1cc(C)cc(OP(C)(=O)Nc2ccccn2)c1", "note": "(stereo unspecified)", "activity score": "inactive: -18%"}, {"smiles": "CS(=O)(=O)c1ccc(Cl)c(NC(=O)COC(=O)C(O)(c2ccccc2)c2ccccc2)c1", "activity score": "inactive: 14.1%"}, {"smiles": "COc1ccccc1OP(C)(=O)Nc1cccc(Br)c1", "note": "(stereo unspecified)", "activity score": "inactive: -8.04%"}, {"smiles": "O=[As](O)(O)c1cccnc1", "activity score": "inactive: -8.57%"}, {"smiles": "O=C(OC1CN2CCC1CC2)c1ccc(Cl)cc1", "note": "(stereo unspecified)", "activity score": "inactive: -11.7%"}, {"smiles": "Cc1cc(C)cc(OP(C)(=O)Nc2ccc(C)cc2C)c1", "note": "(stereo unspecified)", "activity score": "inactive: 0.034%"}, {"smiles": "O=[As](O)(c1cccc(O)c1)c1cccc(O)c1", "activity score": "inactive: -13%"}, {"smiles": "Cc1cccc(OCC(=O)OC2CN3CCC2CC3)c1", "note": "(stereo unspecified)", "activity score": "inactive: -11.5%"}, {"smiles": "NC(=O)Nc1ccc([As](=O)(O)O)cc1", "activity score": "inactive: -6.73%"}, {"smiles": "CN(C(=O)Cc1ccc(Cl)c(Cl)c1)[C@H]1CC[C@@]2(CCCO2)C[C@@H]1N1CCCC1", "activity score": "inactive: -1.73%"}, {"smiles": "CC1=NCCc2c1[nH]c1ccccc21.O=[N+]([O-])c1cc([N+](=O)[O-])c(O)c([N+](=O)[O-])c1", "activity score": "inactive: 6.29%"}, {"smiles": "CN(C)C(=O)c1cc([N+](=O)[O-])cc2c1-c1c(cc([N+](=O)[O-])cc1[N+](=O)[O-])C2=O", "activity score": "inactive: -35.4%"}, {"smiles": "O=[N+]([O-])c1ccc2c(c1)nnn2O", "activity score": "inactive: -8.17%"}, {"smiles": "CCOP1(=S)c2c(C)nn(CCC#N)c2N=C(c2ccc(F)cc2)N1C", "note": "(stereo unspecified)", "activity score": "inactive: 2.19%"}, {"smiles": "CN(C(=O)Cc1ccccc1)[C@@H]1CC[C@]2(CCCO2)C[C@H]1N1CCCC1", "activity score": "inactive: -7.83%"}, {"smiles": "N#CCCN(C(=O)COC(=O)C(O)(c1ccccc1)c1ccccc1)c1ccc(F)cc1", "activity score": "inactive: 1.75%"}, {"smiles": "O=P(Nc1nccs1)(c1ccccc1)c1nc2ccccc2s1", "note": "(stereo unspecified)", "activity score": "inactive: 13.9%"}, {"smiles": "O=C(O)c1cccc(Nc2c([N+](=O)[O-])cc([N+](=O)[O-])cc2[N+](=O)[O-])c1", "activity score": "inactive: -4.2%"}, {"smiles": "CCOP1(=S)c2c(C)nn(CCC#N)c2N=C(c2ccccc2F)N1C", "note": "(stereo unspecified)", "activity score": "inactive: 5.35%"}, {"smiles": "O=C(O)COc1ccc([As](=O)(O)O)cc1[N+](=O)[O-]", "activity score": "inactive: 13.1%"}, {"smiles": "Nc1ccccc1[As](=O)(O)c1ccccc1", "activity score": "inactive: -7.49%"}, {"smiles": "O=P1(Nc2ncccn2)COc2ccccc2OC1", "activity score": "inactive: -15.5%"}, {"smiles": "COc1ccccc1OP(C)(=O)Nc1c(C)cccc1C", "note": "(stereo unspecified)", "activity score": "inactive: -8.22%"}, {"smiles": "NS(=O)(=O)c1cccc(NC(=O)COC(=O)C(O)(c2ccccc2)c2ccccc2)c1", "activity score": "inactive: 6.74%"}, {"smiles": "O=P1(Nc2ccc(Br)cn2)COc2ccccc2OC1", "activity score": "inactive: 1.84%"}, {"smiles": "O=[As](O)(c1cccs1)c1cccs1", "activity score": "inactive: -14.6%"}, {"smiles": "Cc1ccc(OCC(=O)OC2CN3CCC2CC3)cc1", "note": "(stereo unspecified)", "activity score": "inactive: -9.54%"}, {"smiles": "Nc1cccc([As](=O)(O)c2ccccc2)c1", "activity score": "inactive: 6.14%"}, {"smiles": "CCCOc1ccc(NP(C)(=O)Oc2ccc(Cl)cc2)cc1", "note": "(stereo unspecified)", "activity score": "inactive: -8.21%"}, {"smiles": "Cc1ccc(C(=O)OC2CN3CCC2CC3)cc1", "note": "(stereo unspecified)", "activity score": "inactive: -18.4%"}, {"smiles": "CC1CCC(C(C)C)C(OP(=O)(Nc2ccccn2)c2ccccc2)C1", "note": "(stereo unspecified)", "activity score": "inactive: 7.38%"}, {"smiles": "Cc1nn(-c2ccccc2)c2c1P(=O)(N1CCOCC1)N(C)C(c1ccccc1)=N2", "note": "(stereo unspecified)", "activity score": "inactive: -7.26%"}, {"smiles": "CCOC(=O)C(CC)C1=NC(C)(C)Cc2ccccc21.O=[N+]([O-])c1cc([N+](=O)[O-])c(O)c([N+](=O)[O-])c1", "note": "(stereo unspecified)", "activity score": "inactive: 20%"}, {"smiles": "O=[N+]([O-])c1cc([N+](=O)[O-])c(Nc2nnnn2CCO)c([N+](=O)[O-])c1", "activity score": "inactive: 11.6%"}, {"smiles": "O=[N+]([O-])c1cc([N+](=O)[O-])c(-c2cnn(-c3ccccc3)c2)c([N+](=O)[O-])c1", "activity score": "inactive: -20.7%"}, {"smiles": "Cc1nc2ccc3ccccc3c2s1.O=[N+]([O-])c1cc([N+](=O)[O-])c(O)c([N+](=O)[O-])c1", "activity score": "inactive: -4.11%"}, {"smiles": "CN(C(=O)Cc1ccc(Cl)c(Cl)c1)[C@@H]1CCCC[C@H]1N1CCCC1", "activity score": "inactive: -20.7%"}, {"smiles": "CC(C)/C=N\\N=C(\\N)N[N+](=O)[O-]", "activity score": "inactive: -11.4%"}, {"smiles": "Cc1ccc(S(=O)(=O)N(CCCN)CCCc2c(C)nc(N)[nH]c2=O)cc1.O=[N+]([O-])c1cc([N+](=O)[O-])c(O)c([N+](=O)[O-])c1", "activity score": "inactive: -13.4%"}, {"smiles": "CN(CCCl)Cc1cc(Cl)c(NC2=NCCN2)c(Cl)c1", "activity score": "inactive: -20.6%"}, {"smiles": "Nc1ccc(CCCCOc2ccccc2)cc1.O=[N+]([O-])c1cc([N+](=O)[O-])c(O)c([N+](=O)[O-])c1", "activity score": "inactive: -27.8%"}, {"smiles": "CCOP(=O)(NC(=NC(C)c1ccccc1)NC(C)c1ccccc1)OCC", "note": "(stereo unspecified)", "activity score": "inactive: -5.68%"}, {"smiles": "O=[N+]([O-])c1cc([N+](=O)[O-])c(-n2nnc3ccccc32)c([N+](=O)[O-])c1", "activity score": "inactive: -7.09%"}, {"smiles": "O=C(O)C(O)c1ccc(N(CCCl)CCCl)cc1.c1ccncc1", "note": "(stereo unspecified)", "activity score": "inactive: -18.8%"}, {"smiles": "CCC1=CC2Cc3nc4ccc(Cl)cc4c(N)c3C(C1)C2", "note": "(stereo unspecified)", "activity score": "inactive: -1.62%"}, {"smiles": "O=P1(Nc2ccccn2)COc2ccccc2OC1", "activity score": "inactive: -16.7%"}, {"smiles": "CC(C)(C)C(=O)NC(Sc1ncccn1)C(Cl)(Cl)Cl", "note": "(stereo unspecified)", "activity score": "inactive: -2.52%"}, {"smiles": "CN(Cc1cccnc1)C(=O)COc1ccc(Cl)c(Cl)c1.O=[N+]([O-])c1cc([N+](=O)[O-])c(O)c([N+](=O)[O-])c1", "activity score": "inactive: -2.88%"}, {"smiles": "Clc1n[nH]nc1-c1nn[nH][15n]1", "activity score": "inactive: -13.8%"}, {"smiles": "O=P1(N(CCCl)CCCl)NCCC(C(F)(F)F)O1", "note": "(stereo unspecified)", "activity score": "inactive: -10.2%"}, {"smiles": "O=[N+]([O-])c1cc([N+](=O)[O-])c(O)c([N+](=O)[O-])c1.c1ccc(Oc2ccncc2)cc1", "activity score": "inactive: -2.27%"}, {"smiles": "CCOC(=O)c1ccc(NC(=O)C(C)(CCl)SC)cc1", "note": "(stereo unspecified)", "activity score": "inactive: 15.6%"}, {"smiles": "CCOC(=O)c1ccc(NP(C)(=O)Oc2ccc(OC)cc2)cc1", "note": "(stereo unspecified)", "activity score": "inactive: 2.85%"}]}]}
